Measured values taken from ChEMBL document CHEMBL1932973, “5- and 6-membered (thio)lactones are prodrug type carbonic anhydrase inhibitors” (Bioorg Med Chem Lett, 2012).

Target: Carbonic anhydrase 9 (Homo sapiens, UniProt Q16790)
Experiment: Inhibition of human CA9 pre-incubated for 15 mins to 24 hrs measured after 6 hrs by phenol red-based stopped-flow CO2 hydrase assay

In the case of `O=c1ccc2ccccc2o1` [COUMARIN], the Ki is reported as > 100 µM.
